Drawing on ChEMBL document CHEMBL4229322, “Antibacterial Paramagnetic Quinones from Actinoallomurus” (2017), this text covers MIC for 1 sequence.

The test system of the experiment is Pseudomonas aeruginosa. Description: Antimicrobial activity against Pseudomonas aeruginosa ATCC 27853 by broth microdilution method. It counts as functional.

The sequence GENTAMICIN displayed an MIC of 0.5 µg/mL.
